Several values for one entry are separate records, joined by “and”; a condition that tells them apart may be missing. Equal entries are not always repeated.
Experiments:
[1] = target: T1, Tyrosine-protein kinase BTK (Homo sapiens, UniProt Q06187); assay: Inhibition of BTK in human Ramos-B cells assessed as suppression of BCR/anti-IgM-stimulated Ca2+ flux after 1 hr incubation in dark by FLIPR1 assay
[2] = target: T1, Tyrosine-protein kinase BTK; assay: Inhibition of BTK in human whole blood assessed as suppression of BCR/anti-IgM/IgG-stimulated CD69 surface expression after 18 hrs with agitation by FITC-staining based FACS analysis; type: tissue-based
[3] = target: T1, Tyrosine-protein kinase BTK

Amino acid sequences for entries named in this document (tags omitted). A change or cut given only in a name is not applied to a line headed by its entry.
UniProt Q06187: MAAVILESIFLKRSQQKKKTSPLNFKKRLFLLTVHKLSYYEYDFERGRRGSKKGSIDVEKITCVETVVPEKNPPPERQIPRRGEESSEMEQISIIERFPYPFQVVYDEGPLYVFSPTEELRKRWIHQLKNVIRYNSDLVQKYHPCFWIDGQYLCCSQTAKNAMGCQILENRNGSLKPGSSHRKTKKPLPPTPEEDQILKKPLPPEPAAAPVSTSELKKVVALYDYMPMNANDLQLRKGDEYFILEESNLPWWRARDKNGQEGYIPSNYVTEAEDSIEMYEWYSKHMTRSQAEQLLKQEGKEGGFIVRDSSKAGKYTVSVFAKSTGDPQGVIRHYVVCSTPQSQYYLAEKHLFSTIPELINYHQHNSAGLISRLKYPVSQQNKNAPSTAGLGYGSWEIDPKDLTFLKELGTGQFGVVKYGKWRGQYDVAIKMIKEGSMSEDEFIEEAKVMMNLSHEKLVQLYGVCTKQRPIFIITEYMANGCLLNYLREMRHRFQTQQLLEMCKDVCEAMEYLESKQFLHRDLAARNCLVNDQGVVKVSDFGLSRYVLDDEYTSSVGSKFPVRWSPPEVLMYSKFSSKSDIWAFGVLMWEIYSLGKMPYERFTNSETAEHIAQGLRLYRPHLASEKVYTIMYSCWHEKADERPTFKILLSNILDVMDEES

| IC50 [1] [nM] | IC50 [2] | IC50 [3] [nM] | Compound |
| --- | --- | --- | --- |
| 19 | 160 nM | 1.5 | Cc1c(-c2c(Cl)cc(C(N)=O)c3[nH]c4c(c23)CC[C@H](C(C)(C)O)C4)cccc1-n1c(=O)c2cccc(F)c2n(C)c1=O |
| 19 | 990 nM and 630 nM and 190 nM |  | Cc1c(-c2ccc(C(N)=O)c3[nH]c4cc(C(C)(C)O)ccc4c23)cccc1-n1c(=O)c2cccc(F)c2n(C)c1=O |
| 11 | 90 nM and 320 nM |  | Cc1c(-c2c(Cl)cc(C(N)=O)c3[nH]c4cc(C(C)(C)O)ccc4c23)cccc1-n1c(=O)c2cccc(F)c2n(C)c1=O |
| 84 | 350 nM | 2.6 | Cc1c(-c2c(Cl)cc(C(N)=O)c3[nH]c4c(c23)CC[C@@H](C(C)(C)O)C4)cccc1-n1c(=O)c2cccc(F)c2n(C)c1=O |

Reference: ChEMBL document CHEMBL3856250, “Discovery of 6-Fluoro-5-(R)-(3-(S)-(8-fluoro-1-methyl-2,4-dioxo-1,2-dihydroquinazolin-3(4H)-yl)-2-methylphenyl)-2-(S)-(2-hydroxypropan-2-yl)-2,3,4,9-tetrahydro-1H-carbazole-8-carboxamide (BMS-986142): A Reversible Inhibitor of Bruton's Tyrosine Kinase (BTK) Conformationally Constrained by Two …” (J Med Chem, 2016)
